This note sets out measurements from ChEMBL document CHEMBL1275342 (J Med Chem, 2010).

Experiment [1] addresses T1, Serine/threonine-protein kinase Nek2 (Homo sapiens, UniProt P51955).
T1 sequence (P51955 whole entry): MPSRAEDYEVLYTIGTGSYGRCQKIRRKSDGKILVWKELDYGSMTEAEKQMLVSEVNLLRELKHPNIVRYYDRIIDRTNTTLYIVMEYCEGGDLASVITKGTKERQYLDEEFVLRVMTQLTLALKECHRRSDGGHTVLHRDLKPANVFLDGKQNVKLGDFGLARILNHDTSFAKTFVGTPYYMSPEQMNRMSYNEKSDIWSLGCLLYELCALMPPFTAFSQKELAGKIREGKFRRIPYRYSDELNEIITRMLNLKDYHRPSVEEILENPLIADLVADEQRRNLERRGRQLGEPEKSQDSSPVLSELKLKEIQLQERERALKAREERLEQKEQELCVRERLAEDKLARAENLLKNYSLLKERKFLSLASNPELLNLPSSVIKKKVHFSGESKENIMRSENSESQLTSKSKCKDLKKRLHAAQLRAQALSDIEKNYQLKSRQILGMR

Experiment [2] addresses T1, Serine/threonine-protein kinase Nek2. This is another data set of the same source.
The target is the same in experiment [3]. The source holds these as a separate data set.

Take `COc1cc(-c2cnc(N)c(-c3ccc(C(=O)O)c(C)c3)n2)cc(OC)c1OC`: the values for the IC50 in experiment [1], in experiment [2] and in experiment [3] were 2.6 µM, 1.2 µM and 2.3 µM, respectively. Turning to `COc1cc(-c2nc(-c3cc(OC)c(OC)c(OC)c3)cnc2N)ccc1C(=O)O`, the IC50 (in general, the midpoint of a concentration-inhibition curve) was determined as 2.4 µM in experiment [1], 1.3 µM in experiment [2] and 2.5 µM in experiment [3]. As to `COc1cc(-c2cnc(N)c(N3CCC(C(=O)O)CC3)n2)cc(OC)c1OC`, the results for the IC50 in experiment [1], in experiment [2] and in experiment [3] were 0.87 µM, 0.41 µM and 0.94 µM, respectively.

Turning to `CCOc1cc(-c2nc(-c3cc(OC)c(OC)c(OC)c3)cnc2N)ccc1C(=O)O`, in experiment [1], the IC50 came to 16.9 µM. In experiment [1], `COc1cc(-c2cnc(N)c(-c3ccc(C(=O)O)cc3)n2)cc(OC)c1OC` registered a half-inhibitory concentration (IC50) of 2.3 µM. As to `COc1cccc(-c2cnc(N)c(N3CCC(C(=O)O)CC3)n2)c1`, the IC50 in experiment [1] came out at 4.2 µM. Still for that read-out and setting: for `CC[C@H]1CN(c2nc(-c3cc(OC)c(OC)c(OC)c3)cnc2N)CC[C@H]1C(=O)O` (racemic) the value was 1.5 µM.
